Rows were chosen to be rich in hits. Some 3.7% of all compounds tested hit in one or more screens of this group.
ClpP mod = qHTS Assay for Activators of ClpP. purified B. subtilis ClpP, FRET peptide cleavage, 20 min. Potency, µM (titrated, usually from 57.5 µM), inactives show at the top dose activity change, negative = active. 1.9% of 340,000 active; active means well fitted falling curve with a large enough effect; inconclusive means small, poorly fitted or top-dose-only effect; inactive means no such curve, though single readings can be large or run the other way; further: potency means the concentration at half of the fitted maximal effect; the source files actives as falling curves though it sought activators and does not explain the sign; nearly all actives have a fitted effect of over 65% in size
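Purified B. subtilis ClpP, 10 microg/mL final in Tris/HCl pH8 with KCl, BSA, glycerol and Tween-20, cleaved an Abz/nitrotyrosine-quenched decapeptide. Fluorescence (ex 320, em 430) was read at 0 and 20 min at room temperature. Delta was normalized to 5.8 microM ADEP and DMSO/no-enzyme controls.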
Nrf2 block = blocks Nrf2 signaling; A549 ARE-Fluc reporter, luciferase luminescence, 18-24 h; Potency, µM (doses to about 46 µM), inactives show at the highest dose activity change, negative = inhibition, actives largely listed as inhibitors; 2.1% of 360,000 active; further: potency means the concentration at half of the fitted maximal effect; on the % scale 0 is the no-effect control and ±100 the full control effect; nearly all actives have a fitted effect of over 60% in size
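Two sequential reads on A549 ARE_Fluc cells exposed to compound for 18-24 h: a CellTiter-Fluor fluorescence read for viability, then a luciferase luminescence read for Nrf2/ARE activity.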
TCR act = activators of T cell receptors; primary human leukocytes, anti-CD3, IL-2 HTRF, 48 h; Potency, µM (series often up to 9.22 µM), for the others: at the top dose activation of IL-2 secretion, actives largely listed as activators; 330,000 tested, under 10 active; AID 504894; further: % of control where 0% means no effect
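Activity was scored as IL-2 release from primary human leukocytes given only a TCR signal (a-CD3 beads) plus compound for 48 hr. Detection used a two-antibody HTRF format read at 665nm.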
Nrf2 activator = activates Nrf2 signaling | AREc32 ARE-luciferase reporter (MCF7-derived line), luminescence, 24 h | AID 624171 | 0.31% of 410,000 active | Potency, µM (doses to about 46.1 µM), without a hit: at the highest dose activation, actives largely listed as activators; further: potency means the concentration at half of the fitted maximal effect; % of control where 0% means no effect; nearly all actives have a fitted effect of over 65% in size
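Reporter line AREc32 (ARE-Fluc), seeded overnight in OPTI-MEM with 5% FBS; compound pin-transferred, 24 hr at 37 deg C, 5% CO2; luminescent read-out.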
miR-21 reporter = miR-21 reporter, rising signal | HeLa miR-21 FLuc reporter, luciferase, 48 h | Potency, µM (highest dose often 38.3 µM), for inactives: at the top dose reporter change, positive = more light | 340,000 tested, under 10 active | AID 2288; active = well fitted rising curve with a large enough effect; inconclusive = small, poorly fitted or top-dose-only effect; inactive = no such curve, though single readings can be large or run the other way;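 further: % of control where 0% means no effect; miR-21 action dims this reporter so a rising signal means less miR-21 action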
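HeLa cells endogenously expressing miR-21, stably carrying CMV-driven firefly luciferase with a downstream miR-21 binding site, 2000 cells/well. Titrations up to approximately 40 uM, 48 hours; luciferase luminescence read.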
A549 tox = A549 cytotoxicity, counter-screen for Nrf2 inhibitors; Potency, µM (highest dose often 46 µM), inactives show top-dose activity change, negative = cytotoxicity, actives largely listed as inhibitors; 0.16% of 390,000 active; A549 ARE-Fluc cells, CellTiter-Fluor viability, 18-24 h; further: potency means the concentration at half of the fitted maximal effect; on the % scale 0 is the no-effect control and ±100 the full control effect
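A549 ARE_Fluc cells in 5% FBS OPTI-MEM were exposed to compounds in concentration-response for 18-24 h at 37 deg C. Viability was read by CellTiter-Fluor fluorescence (Ex 405/Em 525) after 30 min, before the luciferase read.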
An asterisk follows results filed as active; ? = inconclusive; . = not tested or not shown; [ ] = another dose, or the depositor's remark. Unless noted, the call rests on the fitted dose curve; in most records, active means well fitted curve in the direction sought with a large enough effect; inconclusive means small, poorly fitted or top-dose-only effect, or another doubt; inactive means no such curve, though single readings can be large; an effect the other way counts as inactive or inconclusive.

Compound,A549 tox,ClpP mod,Nrf2 activator,TCR act,Nrf2 block,miR-21 reporter
COc1cccc(NC(=O)CN(C)C(C)C(=O)Nc2cc([N+](=O)[O-])ccc2Cl)c1 (stereo unspecified),-11.0%,31.6µM*,0.7%,-75.8%,?,-1.2%
CC(=O)Oc1c(C)cc(Cl)cc1C(=O)Nc1ccc([N+](=O)[O-])cc1Cl,2.59µM*,2.0%,-1.1%,-6.0%[46.1 µM],1.64µM*,9.8%
O=C(Nc1ccc([N+](=O)[O-])cc1Cl)c1ccccc1O,?,-3.7%,.,.,23.1µM*,.
O=C(Nc1cccc(O)c1)c1ccc([N+](=O)[O-])cc1Cl,0.3%,-1.2%,1.6%,-1.7%,2.8%,-5.7%
N#Cc1c2c(c(NCc3cccnc3)n3c1nc1ccccc13)CCC2,-11.9%,31.6µM*,2.5%,-2.3%,4.4%,-0.5%
O=C(Cn1ncn2c(cc3ccccc32)c1=O)NCCC1=CCCCC1,-1.9%,22.4µM*,-0.5%,-9.5%,-9.4%,-1.8%
CC1(C)CC(=O)c2c(nc3ccccc3c2N)C1,8.4%,31.6µM*,2.8%,-5.3%,8.9%,-1.4%
CCNc1c2c(nc3ccccc13)CC(C)(C)CC2=O,-16.9%,-7.6%,0.1%,-0.5%[46.1 µM],-12.5%,-0.6%
COc1cc(/C=N/c2oc(-c3ccccc3)cc2C#N)ccc1O,5.1%,3.55µM*,3.1%,.,6.7%,-18.0%
COc1cc(C=NCc2ccccc2)ccc1O,.,-0.9%,0.3%,.,.,.
CCN1CC=C2C(C#N)=C(N)C(C#N)(C#N)C(CCc3ccccc3)C2C1 (stereo unspecified),0.1%,28.2µM*,7.3%,1.4%,5.8%,-2.5%
CC(=O)NC(=S)Nc1cc(C(F)(F)F)ccc1N1CCOCC1,2.6%,2.2%,4.3%,0.5%[46.1 µM],25.9µM*,1.1%

Quoted at random: 5 records from the list
Compound,A549 tox,ClpP mod,Nrf2 activator,TCR act,Nrf2 block,miR-21 reporter
N#Cc1c2c(c(NCc3cccnc3)n3c1nc1ccccc13)CCC2,-11.9%,31.6µM*,2.5%,-2.3%,4.4%,-0.5%
CC(=O)Oc1c(C)cc(Cl)cc1C(=O)Nc1ccc([N+](=O)[O-])cc1Cl,2.59µM*,2.0%,-1.1%,-6.0%[46.1 µM],1.64µM*,9.8%
O=C(Nc1cccc(O)c1)c1ccc([N+](=O)[O-])cc1Cl,0.3%,-1.2%,1.6%,-1.7%,2.8%,-5.7%
COc1cccc(NC(=O)CN(C)C(C)C(=O)Nc2cc([N+](=O)[O-])ccc2Cl)c1 (stereo unspecified),-11.0%,31.6µM*,0.7%,-75.8%,?,-1.2%
CCNc1c2c(nc3ccccc13)CC(C)(C)CC2=O,-16.9%,-7.6%,0.1%,-0.5%[46.1 µM],-12.5%,-0.6%

Later entries.
Compound,A549 tox,ClpP mod,Nrf2 activator,TCR act,Nrf2 block,miR-21 reporter
Nc1cc(C(=O)c2ccccc2)ccc1N1CCOCC1,?,-0.7%,0.7%,-0.4%[46.1 µM],0.0%,-55.5%
CC(=O)Nc1cc(C(=O)c2ccccc2)ccc1N1CCOCC1,-2.6%,35.5µM*,0.0%,0.4%,?,0.3%
Cc1cccc(C(=O)NCC(=O)OCc2cc(=O)n3nc(CC(C)C)sc3n2)c1,6.6%,-3.1%,-0.2%,.,13.1%,2.3%
Cc1ccc(C(=O)n2nc(C)c(S(=O)(=O)N3CCOCC3)c2C)cc1C,16.1%,-1.0%,0.2%,.,.,5.3%
O=C(Nc1c(Cl)cc(Cl)cc1-c1nc2ccccc2s1)c1ccc(Br)o1,-7.5%,25.1µM*,5.0%,0.6%,-11.6%,-4.9%
O=C(Nc1ccccc1-c1nc2ccccc2s1)c1cc(Cl)cc(Cl)c1,-1.5%,0.3%,-0.6%,.,.,1.1%
Cc1ccc(S(=O)(=O)N2C[C@@H]3[C@H]4CC[C@H](C4)[C@@H]3[C@@H](C)[C@H]2c2ccco2)cc1,15.4%,-1.7%,4.7%,-2.3%[46.1 µM],20.6µM*,.
Nc1nc(N=Nc2ccc(O)cc2)cc(=O)[nH]1,.,-1.2%,-0.9%,.,.,.
COc1ccc(CNC(=O)CCn2cccn2)cc1,-0.5%,-1.6%,0.7%,.,.,-4.8%
CCOC(=O)c1nn(-c2ccc(C)cc2)c(=O)cc1OCC(=O)Nc1ccc(OC)cc1,1.5%,8.91µM*,0.3%,-2.3%,-11.0%,.
CC1(C(=O)Nc2cccc3cccnc23)CCN1Cc1cccc2c1OCO2 (stereo unspecified),.,31.6µM*,-2.0%,.,.,.
CCN1C(=O)c2ccccc2S(=O)(=O)c2ccc(C(=O)NCc3ccccc3OC)cc21,-0.4%,-10.5%,0.1%,.,-8.9%,-3.3%
O=C(COc1ccccc1)Nc1cccc(-c2nc3ccccc3[nH]2)c1,12.1%,31.6µM*,5.1%,-2.5%[46.1 µM],?,-12.7%
O=C(O)CCCC(=O)Nc1cccc(-c2nc3ccccc3[nH]2)c1,-8.8%,25.1µM*,-0.5%,6.1%,-2.2%,3.3%
O=C(COc1ccc([N+](=O)[O-])cc1)Nc1cccnc1,0.1%,.,-0.8%,-0.9%,?,-11.2%
O=C(COc1ccc(-c2ccccc2)cc1)Nc1cccnc1,-15.7%,-0.1%,-0.7%,-1.7%,16.4µM*,.
O=C(CSc1ccccc1)Nc1ccc(-c2nc3ccccc3[nH]2)cc1,-6.9%,-1.0%,-0.1%,13.4%[46.1 µM],3.9%,-37.8%
O=C(CSc1ccc(Cl)cc1)Nc1cccc(-c2nc3ccccc3[nH]2)c1,-24.5%,12.6µM*,10.1%,1.3%[46.1 µM],-29.8%,-16.5%
CCOc1ccc(-c2cc(-c3nc(-c4cc(OC)c(OC)c(OC)c4)no3)[nH]n2)cc1Cl,15.6%,-26.3%,0.0%,.,19.0%,0.6%
Cc1ccccc1CN1CCN(CC(=O)NCCCN2CCN(c3ccc(F)cc3)CC2)C1=O,-0.3%,-4.5%,14.2%,0.6%,11.6µM*,12.4%
O=C(CN1CCN(Cc2ccc(Cl)cc2)C1=O)NCCCN1CCN(c2ccc(F)cc2)CC1,-4.3%,-2.8%,2.3%,-4.8%,.,27.7%
CSCCC(NC(=O)C1CCC(C)CC1)C(=O)Nc1ccc(NC(C)=O)cc1 (stereo unspecified),1.8%,.,0.5%,-7.7%,0.8%,-3.5%
CCOC(=O)C1Nc2c(F)cc(C)cc2C2c3ccccc3CC12 (stereo unspecified),13.3%,?,11.2µM*,-1.0%,-13.9%,.
COc1cc2c(OC)cccc2cc1C(=O)O,7.2%,15.8µM*,-0.2%,2.1%,?,-11.3%
COc1cc2ccccc2cc1C(=O)O,2.1%,?,2.8%,.,6.8%,-1.5%

Compound activity (PubChem)
